According to patent publication US20100009907A1, “Glucagon-Like Peptides and Uses Thereof” (AMYLIN PHARMACEUTICALS, INC., priority 2006, published 2010):

Assays:
[1] = molecular target: T1, RINm5f cells expressing endogenous GLP-1, calcitonin, and GIP receptors (Rattus norvegicus, UniProt P32301); test: GLP/GIP/CT cAMP (RIN) assay; assay type: cell-based
T1 construct: RINm5f cells expressing endogenous GLP-1, calcitonin, and GIP receptors; endogenous in cells; host or cells: RINm5f cells
T1 sequence (P32301 22-463): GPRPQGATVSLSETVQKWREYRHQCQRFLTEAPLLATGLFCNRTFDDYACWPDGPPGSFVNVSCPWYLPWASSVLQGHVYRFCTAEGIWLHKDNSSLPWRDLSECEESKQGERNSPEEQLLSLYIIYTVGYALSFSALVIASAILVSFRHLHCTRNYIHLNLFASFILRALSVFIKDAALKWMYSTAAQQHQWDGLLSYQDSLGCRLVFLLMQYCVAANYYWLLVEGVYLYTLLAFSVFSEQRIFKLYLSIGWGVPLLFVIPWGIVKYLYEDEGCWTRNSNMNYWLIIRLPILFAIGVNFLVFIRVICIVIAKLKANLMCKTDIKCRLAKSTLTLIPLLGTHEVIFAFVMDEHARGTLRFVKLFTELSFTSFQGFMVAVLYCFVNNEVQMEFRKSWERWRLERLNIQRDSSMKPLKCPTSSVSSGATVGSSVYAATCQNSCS
Method: In addition, receptor binding can be measured using cells prepared from confluent cultures of RINm5f cells expressing endogenous GLP-1, calcitonin, and GIP receptors. Cells, and peptide or buffer solution are combined in 384-well plates. After a 30-minute incubation at room temperature in air, cAMP content is measured as recommended in the Perkin-Elmer AlphaScreen kit instructions.
Cells, and peptide or buffer solutions are combined in 384-well plates and incubated at room temperature in air for 30-minutes. cAMP content can then be measured according to recommendations in the Perkin-Elmer AlphaScreen™ kit instructions using the Perkin Elmer Fusion fluorimeter and data are analyzed using XLfit software (IDBS).

[2] = Acute food intake assay (FI Assay); assay type: in vivo, NIH/Swiss mice; details: 1000 μg/kg intraperitoneal, relative to vehicle
Method: The effect of various test peptides on food intake is investigated using an acute food intake assay. This assay measures food consumption in lean, group-housed, overnight-fasted NIH/Swiss mice. Twelve mice are housed three to a cage. […] Decreased, as well as increased, food intake is measured. Testing of the various doses of the polypeptide generates ED50s.
Female NIH/Swiss mice (8-24 weeks old) are group housed with a 12:12 hour light:dark cycle with lights on at 0600. Water and a standard pelleted mouse chow diet are available ad libitum, except as noted. Animals are fasted starting at approximately 1500 hrs, 1 day prior to experiment. The morning of the experiment, animals are divided into experimental groups.
At time=0 min, all animals are given an intraperitoneal injection of vehicle or compound in an amount ranging from about 63 to 1000 μg/kg, and immediately given a pre-weighed amount (10-15 g) of the standard chow.

CC[C@H](C)[C@H](NC(=O)[C@H](CC(C)C)NC(=O)[C@H](Cc1c[nH]c2ccccc12)NC(=O)[C@H](CC(=O)O)NC(=O)[C@@H](NC(=O)[C@H](Cc1ccccc1)NC(=O)[C@H](CCC(=O)O)NC(=O)[C@H](CCCCN)NC(=O)[C@H](C)NC(=O)[C@H](C)NC(=O)[C@H](CCCCN)NC(=O)[C@H](CCC(=O)O)NC(=O)[C@H](CC(=O)O)NC(=O)[C@H](CC(C)C)NC(=O)[C@H](CCC(N)=O)NC(=O)[C@H](CCC(N)=O)NC(=O)[C@@H](NC(=O)[C@@H](NC(=O)[C@H](CC(=O)O)NC(=O)[C@H](CO)NC(=O)[C@@H](NC(=O)[C@H](Cc1ccccc1)NC(=O)[C@@H](NC(=O)CNC(=O)[C@H](CCC(=O)O)NC(=O)[C@@H](C)NC(=O)[C@@H](N)Cc1c[nH]cn1)[C@@H](C)O)[C@@H](C)O)C(C)C)[C@@H](C)O)[C@@H](C)CC)C(=O)N[C@@H](CC(N)=O)C(N)=O [compound 8]
GLP/GIP/CT cAMP(RIN) EC50 [1]: 19 nM

CC[C@H](C)[C@H](NC(=O)[C@H](CC(C)C)NC(=O)[C@H](Cc1c[nH]c2ccccc12)NC(=O)[C@H](CC(=O)O)NC(=O)[C@@H](NC(=O)[C@H](Cc1ccccc1)NC(=O)[C@H](CCC(=O)O)NC(=O)[C@H](CCCCN)NC(=O)[C@H](C)NC(=O)[C@H](C)NC(=O)[C@H](CCCCN)NC(=O)[C@H](CCC(=O)O)NC(=O)[C@H](CC(=O)O)NC(=O)[C@H](CC(C)C)NC(=O)[C@H](CCC(N)=O)NC(=O)[C@H](CCC(N)=O)NC(=O)[C@@H](NC(=O)[C@@H](NC(=O)[C@H](CC(=O)O)NC(=O)[C@H](CO)NC(=O)[C@@H](NC(=O)[C@H](Cc1ccccc1)NC(=O)[C@@H](NC(=O)CNC(=O)[C@H](CCC(=O)O)NC(=O)[C@@H](C)NC(=O)[C@@H](N)Cc1c[nH]cn1)[C@@H](C)O)[C@@H](C)O)C(C)C)[C@@H](C)O)[C@@H](C)CC)C(=O)N[C@@H](CC(N)=O)C(=O)NCC(=O)NCC(=O)N1CCC[C@H]1C(=O)N[C@@H](CO)C(=O)N[C@@H](CCCCN)C(=O)N[C@@H](CCC(=O)O)C(=O)N[C@H](C(=O)N[C@H](C(=O)N[C@@H](CO)C(N)=O)[C@@H](C)CC)[C@@H](C)CC [compound 10]
GLP/GIP/CT cAMP(RIN) EC50 [1]: 0.048 nM

CC[C@H](C)[C@H](NC(=O)[C@H](CC(C)C)NC(=O)[C@H](Cc1c[nH]c2ccccc12)NC(=O)[C@H](CC(=O)O)NC(=O)[C@@H](NC(=O)[C@H](Cc1ccccc1)NC(=O)[C@H](CCC(=O)O)NC(=O)[C@H](CCCCN)NC(=O)[C@H](C)NC(=O)[C@H](C)NC(=O)[C@H](CCCCN)NC(=O)[C@H](CCC(=O)O)NC(=O)[C@H](CC(=O)O)NC(=O)[C@H](CC(C)C)NC(=O)[C@H](CCC(N)=O)NC(=O)[C@H](CCC(N)=O)NC(=O)[C@@H](NC(=O)[C@@H](NC(=O)[C@H](CC(=O)O)NC(=O)[C@H](CO)NC(=O)[C@@H](NC(=O)[C@H](Cc1ccccc1)NC(=O)[C@@H](NC(=O)CNC(=O)[C@H](CCC(=O)O)NC(=O)[C@@H](C)NC(=O)[C@@H](N)Cc1c[nH]cn1)[C@@H](C)O)[C@@H](C)O)C(C)C)[C@@H](C)O)[C@@H](C)CC)C(=O)N[C@@H](CC(N)=O)C(=O)NCC(=O)NCC(=O)N1CCC[C@H]1C(=O)N[C@@H](CO)C(=O)N[C@@H](CCCCN)C(=O)N[C@@H](CCC(=O)O)C(=O)N[C@H](C(=O)N[C@H](C(=O)N[C@@H](CCCCNC(=O)CCC(C)C)C(N)=O)[C@@H](C)CC)[C@@H](C)CC [compound 15]
Food Intake % inhibition 30 min [2]: 70% | Food Intake % inhibition 60 min [2]: 81% | Food Intake % inhibition 120 min [2]: 83% | Food Intake % inhibition 180 min [2]: 84%

CCCCCCCCCNC(=O)CSC[C@H](NC(=O)[C@H](C)NC(=O)[C@H](C)NC(=O)[C@H](CCCCN)NC(=O)[C@H](CCC(=O)O)NC(=O)[C@H](CC(=O)O)NC(=O)[C@H](CC(C)C)NC(=O)[C@H](CCC(N)=O)NC(=O)[C@H](CCC(N)=O)NC(=O)[C@@H](NC(=O)[C@@H](NC(=O)[C@H](CC(=O)O)NC(=O)[C@H](CO)NC(=O)[C@@H](NC(=O)[C@H](Cc1ccccc1)NC(=O)[C@@H](NC(=O)[C@H](Cc1ccccc1)NC(=O)[C@H](CCC(=O)O)NC(=O)[C@@H](C)NC(=O)[C@@H](N)Cc1c[nH]cn1)[C@@H](C)O)[C@@H](C)O)C(C)C)[C@@H](C)O)C(=O)N[C@@H](CCC(=O)O)C(=O)N[C@@H](Cc1ccccc1)C(=O)N[C@H](C(=O)N[C@@H](CC(=O)O)C(=O)N[C@@H](Cc1c[nH]c2ccccc12)C(=O)N[C@@H](CC(C)C)C(=O)N[C@H](C(=O)N[C@@H](CC(N)=O)C(=O)NCC(=O)NCC(=O)N1CCC[C@H]1C(=O)N[C@@H](CO)C(=O)N[C@@H](CCCCN)C(=O)N[C@@H](CCC(=O)O)C(=O)N[C@H](C(=O)N[C@H](C(=O)N[C@@H](CO)C(N)=O)[C@@H](C)CC)[C@@H](C)CC)[C@@H](C)CC)[C@@H](C)CC [compound 17]
Food Intake % inhibition 30 min [2]: 49% | Food Intake % inhibition 60 min [2]: 68% | Food Intake % inhibition 120 min [2]: 77% | Food Intake % inhibition 180 min [2]: 79%

CCCCCCCC[C@H](NC(=O)[C@H](C)NC(=O)[C@H](C)NC(=O)[C@H](CCCCN)NC(=O)[C@H](CCC(=O)O)NC(=O)[C@H](CC(=O)O)NC(=O)[C@H](CC(C)C)NC(=O)[C@H](CCC(N)=O)NC(=O)[C@H](CCC(N)=O)NC(=O)[C@@H](NC(=O)[C@@H](NC(=O)[C@H](CC(=O)O)NC(=O)[C@H](CO)NC(=O)[C@@H](NC(=O)[C@H](Cc1ccccc1)NC(=O)[C@@H](NC(=O)[C@H](Cc1ccccc1)NC(=O)[C@H](CCC(=O)O)NC(=O)[C@@H](C)NC(=O)[C@@H](N)Cc1c[nH]cn1)[C@@H](C)O)[C@@H](C)O)C(C)C)[C@@H](C)O)C(=O)N[C@@H](CCC(=O)O)C(=O)N[C@@H](Cc1ccccc1)C(=O)N[C@H](C(=O)N[C@@H](CC(=O)O)C(=O)N[C@@H](Cc1c[nH]c2ccccc12)C(=O)N[C@@H](CC(C)C)C(=O)N[C@H](C(=O)N[C@@H](CC(N)=O)C(=O)NCC(=O)NCC(=O)N1CCC[C@H]1C(=O)N[C@@H](CO)C(=O)N[C@@H](CCCCN)C(=O)N[C@@H](CCC(=O)O)C(=O)N[C@H](C(=O)N[C@H](C(=O)N[C@@H](CO)C(N)=O)[C@@H](C)CC)[C@@H](C)CC)[C@@H](C)CC)[C@@H](C)CC [compound 18]
Food Intake % inhibition 30 min [2]: 14% | Food Intake % inhibition 60 min [2]: 40% | Food Intake % inhibition 120 min [2]: 59% | Food Intake % inhibition 180 min [2]: 62%

CC[C@H](NC(=O)[C@@H](N)Cc1c[nH]cn1)C(=O)N[C@@H](CCC(=O)O)C(=O)NCC(=O)N[C@H](C(=O)N[C@@H](Cc1ccc(O)cc1)C(=O)N[C@H](C(=O)N[C@@H](CC(N)=O)C(=O)N[C@@H](CC(=O)O)C(=O)N[C@H](C(=O)N[C@H](C(=O)N[C@@H](CCC(=O)O)C(=O)N[C@@H](Cc1ccc(O)cc1)C(=O)N[C@@H](CC(C)C)C(=O)N[C@@H](CCC(=O)O)C(=O)N[C@@H](CCC(=O)O)C(=O)N[C@@H](CCCCN)C(=O)N[C@@H](C)C(=O)N[C@@H](C)C(=O)N[C@@H](CCCCN)C(=O)N[C@@H](CCC(=O)O)C(=O)N[C@@H](Cc1ccccc1)C(=O)N[C@H](C(=O)N[C@@H](CCC(=O)O)C(=O)N[C@@H](Cc1c[nH]c2ccccc12)C(=O)N[C@@H](CC(C)C)C(=O)N[C@H](C(=O)N[C@@H](CCCCN)C(=O)NCC(=O)N[C@@H](CCCCN)C(=O)N1CCC[C@H]1C(=O)N[C@@H](CCCCN)C(=O)N[C@@H](CCCCN)C(=O)N[C@H](C(=O)N[C@@H](CCCNC(=N)N)C(=O)N[C@@H](Cc1ccc(O)cc1)C(=O)N[C@@H](CO)C(N)=O)[C@@H](C)CC)[C@@H](C)CC)[C@@H](C)CC)[C@@H](C)O)C(C)C)[C@@H](C)O)[C@@H](C)O [compound 28]
Food Intake % inhibition 30 min [2]: 44% | Food Intake % inhibition 60 min [2]: 60% | Food Intake % inhibition 120 min [2]: 69% | Food Intake % inhibition 180 min [2]: 62%
